Experiments:
[1] = biological target: T1, Aβ42 (Homo sapiens, UniProt P05067); assay: Thioflavin T (ThT) assay of Aβ42 aggregation; format: biochemical; settings: 28 μM peptide, 10 μM Aβ42, 5 μM ThT, 24 h, room temperature; mean of n = 3
T1 construct: purchased Bachem, Bubendorf, Switzerland
Experimental: To evaluate the ability of the peptides to prevent Aβ42 aggregation, a ThT assay was performed. Aβ42 (10 μM), ThT (5 μM), and the peptides (28 μM) were incubated in 96-well plates for 24 h at room temperature in a plate reader (Clariostar, BMG Labtech, Ortenberg, Germany). During this time, the ThT fluorescence was measured every 6 minutes with an excitation of 440 nm and emission of 490 nm. The data were corrected considering the blank wells (without Aβ42 and the peptides). None of the peptides interact with ThT alone or has autofluorescence properties. All measurements were performed in triplicate (n = 3), and data are presented as mean ± SM.
Different concentrations were titrated to investigate CDP-1 and -2 dose dependency on the Aβ42 aggregate formation, and a ThT assay was performed as described before. The effect of 0, 0.5, 1, 3, 6, 13, and 28 μM peptides was tested against 10 μM Aβ42 over 24 h. All experiments were performed in triplicate (n = 3), and data are presented as mean ± SM.

Chains of the proteins cited; added tags and fusions are not shown. Residues count along the entry.
UniProt P05067, 672-713 limits assumed: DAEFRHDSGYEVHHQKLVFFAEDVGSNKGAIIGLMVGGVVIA

[2] = test system: Aβ42 oligomers; assay: QIAD assay (Aβ42 aggregate size distribution, oligomer elimination); format: biochemical; settings: 20 μM peptide added to 80 μM Aβ42 (pre-incubated 2 h), 30 min; density gradient, RP-HPLC UV 214 nm; n = 3
Experimental: In order to evaluate the efficacy of the peptides in eliminating Aβ42 oligomers, QIAD assays were performed.[39] Briefly, lyophilized Aβ42 (80 μM) was incubated for 2 h in sodium phosphate buffer for Aβ42 oligomerization. Then, each peptide (20 μM) was added to the Aβ42 solution and incubated for 30 min. Finally, samples were added on top of an iodixanol density gradient (5–50% (w/v) (OptiPrep, Sigma-Aldrich, Darmstadt, Germany) and centrifuged for 3 h at 4 °C and 259,000 x g (Optima TL-100, Beckman Coulter, Brea, CA, USA). For the sample analysis, 14 fractions (140 μL each) were collected from top to bottom. The top fractions, named fractions 1–2, contained Aβ42-monomers; fractions 4–6 contained the Aβ42-oligomers, which are of special interest; and the bottom fractions 11–14 contained high molecular weight of aggregated Aβ42. Each density gradient fraction was analyzed by Reversed Phase Liquid Chromatography. For this an Agilent 1260 Infinity II (Santa Clara, California, USA) system was equipped with an Agilent Zorbax SB-300 C-8 5 μm, 4.6 × 250 mm Column (Santa Clara, California, USA) and a multi-wavelength detector set to acquire the UV absorbance at 214 nm. H2O + 0.1% trifluoroacetic acid (AppliChem, Darmstadt, Germany) and acetonitrile (Roth, Karlsruhe, Germany) + 0.1% trifluoroacetic acid were used as eluent A and B, respectively. The acquisition method consisted of an initial isocratic step at 15% B, followed by a gradient from 15% B to 45% B in 10 min and another isocratic step at 45% B. The column temperature was set to 80 °C for the entire analysis. This method ensured full separation of the iodixanol density gradient medium and Aβ42 in all fractions. Aβ42 peaks were analyzed and integrated by the Agilent OpenLab 2.5 software. All measurements were performed in triplicate (n = 3), and data are presented as mean ± SM.

[3] = test system: Aβ42 aggregates; assay: sFIDA assay of Aβ42 aggregate elimination; format: biochemical; settings: 50 nM peptide, 1 nM Aβ42 aggregates, overnight, room temperature, PBS; TIRFM pixel count; n = 3
Experimental: To determine the influence of peptides on Aβ42 aggregates, an sFIDA assay was performed. The principle was previously described.[29] Therefore, we used pretreated 384 glass bottom microtiterplates (Sensoplate plus, Greiner Bio-One GmbH, Frickenhausen, Germany) to immobilize the capture-antibody Nab228 (Sigma-Aldrich, St. Louis, Missouri, USA) in a concentration of 2.5 μg/mL in 0.1 M carbonate buffer (Carl Roth, Karlsruhe, Germany). After an overnight incubation at 4 °C, the plate was washed five times with TBS and blocked with 80 μL of a 0.5% BSA solution in TBS with 0.03% ProClin 300 (Sigma-Aldrich, St. Louis, Mo, USA) for 1.5 h at room temperature.
The influence of 50 nM CDPs on 1 nM Aβ42 aggregates (prepared according to Ref ([70])) in PBS was determined by incubating them overnight at room temperature and 600 rpm. As a control, the same Aβ42 aggregates concentration was incubated without additions of peptides; instead, the buffer was added to contain the same end concentrations. […]
By using a total internal reflection microscopy (TIRFM) (Leica Camera AG, Wetzlar, Germany), measurement (excitation: 635 nm, emission filter: 705/22 nm) was carried out with an oil immersion objective in 100× magnifications as previously described by Kass et al. 2022, and for each well, 25 of 14-bit grayscale images were measured with a size of 1000 × 1000 pixel each. […]

[4] = test system: HEK293 cells; assay: MTT cell viability assay, HEK293; format: cell-based, human; settings: 20 and 40 μM peptide, overnight, n = 3
Experimental: (§1) The cell viability assay was performed using the reduction of [3-(4,5-dimethylthiazol-2-yl)-2,5-diphenyl tetrazolium bromide-MTT] (Merck, Darmstadt, Germany) to investigate the cytotoxicity of the CDPs against SH-SY5Y (human neuroblastoma) and HEK293 (human embryonic kidney) cells. Both cell lines were purchased from the Leibniz Institute DSMZ-German collection of microorganisms and cell cultures GmbH. HEK293 cells were cultivated in Dulbecco’s modified Eagle’s medium high glucose (Merck, Darmstadt, Germany) containing 2% antibiotic solution of 10 000 units Penicillin, 10 mg streptomycin/ml (Merck, Darmstadt, Germany), and 10% fetal bovine serum (Merck, Darmstadt, Germany) at 37 °C with 5% CO2. […]
(§2) According to the manufacturer’s instructions, cell viability was measured using the Cell Proliferation Kit I (Roche, Basel, Switzerland). The absorbance of the formazan product was determined by measuring the absorption at 570 nm and subtracted from the absorbance at 660 nm.
(§3) The SH-SY5Y cells with a density of 10 000 cells (for HEK293 5000 cells) per well (total volume of 100 μL) were added to each well of a 96-well tissue culture plate (VWR North American) and incubated overnight at 37 °C with 5% CO2. […] Finally, the absorbance was measured at 570 and 660 nm using a CLARIO star plate reader (BMG labtech, Ortenberg, Germany), and the cell viability was calculated using eq 2: [drawing 2] […]

[5] = test system: SH-SY5Y cells; assay: MTT cell viability assay, SH-SY5Y; format: cell-based, human; settings: 20 and 40 μM peptide, overnight, n = 3
Experimental: as §1, §2, §3

## COC(=O)[C@H](CCCCN)NC(=O)[C@H](CCCCN)NC(=O)[C@H](CO)NC(=O)[C@H](CS)NC(=O)[C@H](CCCCN)NC(=O)[C@H](Cc1c[nH]c2ccccc12)NC(=O)[C@H](CCCNC(=N)N)NC(=O)[C@H](Cc1c[nH]c2ccccc12)NC(=O)[C@H](CCCNC(=N)N)NC(=O)[C@H](CO)NC(=O)[C@H](CC(=O)O)NC(=O)[C@H](CCSC)NC(=O)[C@H](CCCCN)NC(C)=O [CDP-6]
[1]
  ThT signal / Aβ42 aggregation compared to Aβ42 alone: four times smaller
[2]
  Aβ42 in QIAD fraction 6 (oligomers): detectable
  Aβ42 in QIAD fractions 4–5 (oligomers): not detected
[3]
  sFIDA signal reduction compared with the control: 91.2%

## COC(=O)[C@H](CCCCN)NC(=O)[C@H](CCCCN)NC(=O)[C@H](CO)NC(=O)[C@H](CS)NC(=O)[C@H](CCCCN)NC(=O)[C@H](Cc1c[nH]c2ccccc12)NC(=O)[C@H](CCCNC(=N)N)NC(=O)[C@H](Cc1c[nH]c2ccccc12)NC(=O)[C@H](CCCNC(=N)N)NC(=O)[C@H](CS)NC(=O)[C@H](CC(=O)O)NC(=O)[C@H](CCSC)NC(=O)[C@H](CCCCN)NC(C)=O [CDP-8]
[1]
  ThT signal / Aβ42 aggregation compared to Aβ42 alone: four times smaller
[4]
  cytotoxicity in HEK293 cells: nontoxic
[2]
  Aβ42 in QIAD fractions 4–5 (oligomers): not detected
[5]
  cytotoxicity in SH-SY5Y cells: nontoxic
[3]
  sFIDA signal reduction compared with the control: 77.2%

Reference: paper PMC11258689, “A Snake Venom Peptide and Its Derivatives Prevent Aβ42 Aggregation and Eliminate Toxic Aβ42 Aggregates In Vitro” (ACS Chemical Neuroscience, 2024)
